The source of these data is US10208068B2, “Macrocycles as factor XIa inhibitors” (BRISTOL-MYERS SQUIBB COMPANY, priority 2011, dated 2019).

By UniProt entry, the sequences of proteins in these tests, tags left out. Residues count along the entry.
UniProt P03951, 388-625 limits assumed: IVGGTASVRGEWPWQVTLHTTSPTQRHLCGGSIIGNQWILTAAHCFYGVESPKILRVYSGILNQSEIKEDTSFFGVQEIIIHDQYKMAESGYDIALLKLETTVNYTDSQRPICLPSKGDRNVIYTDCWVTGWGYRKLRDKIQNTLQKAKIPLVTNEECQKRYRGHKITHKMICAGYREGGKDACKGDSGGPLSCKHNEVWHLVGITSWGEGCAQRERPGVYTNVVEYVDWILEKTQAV
UniProt P03951, 19-387 partner limits assumed: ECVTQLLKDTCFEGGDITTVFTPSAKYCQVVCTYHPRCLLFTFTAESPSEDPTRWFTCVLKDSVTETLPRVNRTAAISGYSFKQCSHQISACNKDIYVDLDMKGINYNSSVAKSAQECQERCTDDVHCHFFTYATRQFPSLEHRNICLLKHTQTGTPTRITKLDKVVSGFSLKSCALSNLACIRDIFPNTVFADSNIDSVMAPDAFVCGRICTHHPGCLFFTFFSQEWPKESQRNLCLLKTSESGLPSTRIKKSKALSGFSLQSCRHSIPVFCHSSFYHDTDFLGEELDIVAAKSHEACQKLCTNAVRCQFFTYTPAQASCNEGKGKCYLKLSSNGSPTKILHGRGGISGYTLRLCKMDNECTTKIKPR

The target in the test is human Factor XIa (Homo sapiens (Human), UniProt P03951). As to the kind of experiment: Factor XIa enzyme inhibition assay (chromogenic substrate S-2366). The note with it: read-out: Factor XIa Ki; purified human Factor XIa 25-200 pM, substrate S-2366, 50 mM HEPES pH 7.4.

pKi: −log10 of the molar value. A value given as a limit tells only on which side of the number the result lay.

With `Cc1c(C(=O)N[C@H]2CCC[C@@H](C)C(=O)Nc3cc(NC(=O)OCc4ccon4)ccc3-c3ccnc2c3)nnn1-c1cccc(Cl)c1F`, the pKi was over 8.30.
